## Ab-14 heavy chain CDR variants: yeast mating affinities

Target peptide (SARS-CoV-2 spike, HR2 region): PDVDLGDISGINAS

Parent: Ab-14, a human scFv built as VH, a 15-residue (Gly4Ser)3 linker, VL. Only the CDRs of the heavy chain vary.
VH: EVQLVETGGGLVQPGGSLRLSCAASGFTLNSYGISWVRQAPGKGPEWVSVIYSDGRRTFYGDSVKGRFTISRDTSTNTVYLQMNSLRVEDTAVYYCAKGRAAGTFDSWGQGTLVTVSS
VL: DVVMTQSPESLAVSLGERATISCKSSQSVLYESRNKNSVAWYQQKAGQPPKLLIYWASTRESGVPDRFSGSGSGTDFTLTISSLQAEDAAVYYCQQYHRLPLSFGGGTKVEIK

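Phage display of a naive human antibody library on the peptide gave the parent. This is the validation round: designs drawn from the data on random variants, tested in the same kind of assay. Their group label is 14H_En_Gibbs (En: ensemble of fine-tuned language models; Gibbs: Gibbs sampling). The assay is AlphaSeq: two haploid yeast populations carry antibody and antigen on their surface. After mating in shaken culture at 30 °C for 16 h, diploids were selected and their barcode pairs sequenced. Scores were corrected for input abundance and mapped to Kd with protein pairs of known affinity run in the same pool. Mating was done six times.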

Sequences are complete VH domains. The read-out is the apparent dissociation constant on a log10 scale (nM): the lower, the stronger. The mean shown is taken over the replicates in which the pair was detected. Where no diploid with the target was found in that replicate, the entry reads "nd": below detection, most likely a poor binder, though not proof of it.

VH,log10 Kd (nM) by replicate,mean log10 Kd (nM),empty controls
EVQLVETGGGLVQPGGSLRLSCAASGFDIEEYGISWVRQAPGKGPEWVSVIYADGQRKSYIDSFKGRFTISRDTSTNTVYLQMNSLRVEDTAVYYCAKGQNNGIGMYWGQGTLVTVSS,nd / nd / nd / nd / nd / nd,nd,0 of 18
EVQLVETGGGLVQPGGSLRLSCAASGEDLEAYGISWVRQAPGKGPEWVSVIYADGVRTGYVNKVKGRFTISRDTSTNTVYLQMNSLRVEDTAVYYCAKGDTGGMFDDWGQGTLVTVSS,nd / nd / nd / nd / nd / nd,nd,0 of 18
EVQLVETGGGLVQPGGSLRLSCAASGFDIQDYGISWVRQAPGKGPEWVSVIYADGSRTAYVNSAKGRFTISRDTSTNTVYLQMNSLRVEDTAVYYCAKGLWGATLDVWGQGTLVTVSS,1.02 / 0.91 / 0.77 / 0.27 / 0.34 / 1.03,0.72,0 of 18
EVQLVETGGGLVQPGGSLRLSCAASGFDLGEYGISWVRQAPGKGPEWVSVIYADGQRAAYQQQFKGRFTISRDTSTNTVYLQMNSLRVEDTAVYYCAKGEAGGAFDLWGQGTLVTVSS,nd / nd / nd / nd / nd / nd,nd,0 of 18
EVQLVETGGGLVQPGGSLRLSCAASGMNIDEYGISWVRQAPGKGPEWVSVIYADGLRYHYANSVKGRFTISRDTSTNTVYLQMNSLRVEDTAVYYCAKGEMAGFFMDWGQGTLVTVSS,nd / nd / nd / nd / nd / nd,nd,0 of 18
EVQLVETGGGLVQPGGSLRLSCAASGFDLNEYGVSWVRQAPGKGPEWVSVIYADGIRRAYAANFKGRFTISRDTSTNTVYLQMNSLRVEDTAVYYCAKGVTAGGLDIWGQGTLVTVSS,nd / nd / nd / nd / nd / nd,nd,1 of 18 (0.88)
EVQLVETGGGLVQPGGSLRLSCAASGFNIQEYGISWVRQAPGKGPEWVSVIYADGRRTAYAEPVKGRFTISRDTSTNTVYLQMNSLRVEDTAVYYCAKGEDGGTIDTWGQGTLVTVSS,nd / nd / nd / nd / nd / nd,nd,0 of 18
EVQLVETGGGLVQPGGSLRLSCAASGFDIEEYGISWVRQAPGKGPEWVSVIYADGQRTSYSNDFKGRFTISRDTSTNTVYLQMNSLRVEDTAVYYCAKGQNGMIGNYWGQGTLVTVSS,nd / nd / nd / nd / nd / nd,nd,0 of 18
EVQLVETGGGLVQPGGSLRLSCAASGFDLDQYGISWVRQAPGKGPEWVSVIYADGRRTQYANDVKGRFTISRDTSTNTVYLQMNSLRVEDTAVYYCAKGKYAGSMLSWGQGTLVTVSS,nd / nd / nd / nd / nd / nd,nd,0 of 18
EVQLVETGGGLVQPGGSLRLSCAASGFNMDEYGISWVRQAPGKGPEWVSVIYADGRRTVYTNSVKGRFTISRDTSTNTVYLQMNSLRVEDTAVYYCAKGVVTWSGKVWGQGTLVTVSS,nd / nd / nd / nd / nd / nd,nd,0 of 18
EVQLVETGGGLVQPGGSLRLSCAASGYDLVEYGISWVRQAPGKGPEWVSVIYADGQRTVYSDDVKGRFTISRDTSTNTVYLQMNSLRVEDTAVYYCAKGNHGGTIFTWGQGTLVTVSS,nd / nd / nd / nd / nd / nd,nd,0 of 18
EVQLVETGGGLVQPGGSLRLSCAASGDDLENVGISWVRQAPGKGPEWVSVIYADGMRNQYAQSVKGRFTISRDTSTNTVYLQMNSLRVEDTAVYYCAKGHTGGTFFDWGQGTLVTVSS,nd / nd / nd / nd / nd / nd,nd,1 of 18 (1.82)
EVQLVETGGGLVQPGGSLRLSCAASGFDIMEYGVSWVRQAPGKGPEWVSVIYADGVRTAYSQDVKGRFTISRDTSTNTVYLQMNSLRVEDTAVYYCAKGNNLDSYVDWGQGTLVTVSS,nd / nd / nd / nd / nd / nd,nd,0 of 18
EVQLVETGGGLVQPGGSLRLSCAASGEDLDEYGISWVRQAPGKGPEWVSVIYADGLRTAYSDNFKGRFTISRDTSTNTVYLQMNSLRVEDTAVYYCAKGHLGGQFDMWGQGTLVTVSS,nd / nd / nd / nd / nd / nd,nd,0 of 18
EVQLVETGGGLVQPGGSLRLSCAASGFDLEDYGISWVRQAPGKGPEWVSVIYADGKRTAYAQKFKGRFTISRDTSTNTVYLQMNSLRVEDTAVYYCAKGTIGGTFVDWGQGTLVTVSS,0.48 / 0.92 / 0.57 / 0.20 / 0.59 / 0.66,0.57,0 of 18
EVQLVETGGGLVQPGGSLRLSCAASGFDIQEYGISWVRQAPGKGPEWVSVIYADGLRSMVTNSVKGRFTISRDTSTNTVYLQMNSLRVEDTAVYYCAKGESGVMVLVWGQGTLVTVSS,nd / nd / nd / nd / nd / nd,nd,1 of 18 (1.78)
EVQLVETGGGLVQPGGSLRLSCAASGKDLQEYGVSWVRQAPGKGPEWVSVIYADGMRKSYADSVKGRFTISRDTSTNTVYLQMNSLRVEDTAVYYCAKGQHAGYLDKWGQGTLVTVSS,nd / nd / nd / nd / nd / nd,nd,0 of 18
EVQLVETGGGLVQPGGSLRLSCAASGKDMNDYGISWVRQAPGKGPEWVSVIYADGSRAAYGDNFKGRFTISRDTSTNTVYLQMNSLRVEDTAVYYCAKGELAGTFDMWGQGTLVTVSS,nd / 1.09 / nd / 0.82 / nd / nd,0.96,1 of 18 (0.58)
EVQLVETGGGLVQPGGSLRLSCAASGMSIGEYGISWVRQAPGKGPEWVSVIYADGERTNYASNFKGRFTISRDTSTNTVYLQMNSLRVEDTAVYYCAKGVEAGTFDVWGQGTLVTVSS,nd / nd / nd / nd / nd / nd,nd,0 of 18
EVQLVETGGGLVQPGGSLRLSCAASGFDLEKYGIHWVRQAPGKGPEWVSVIYADGIRKSYSDSVKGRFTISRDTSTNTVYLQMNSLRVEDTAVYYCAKGDLSGTFYVWGQGTLVTVSS,1.28 / 1.11 / 1.25 / 1.47 / 1.39 / 1.08,1.26,1 of 18 (2.24)
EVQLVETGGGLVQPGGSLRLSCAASGFGLMDYGISWVRQAPGKGPEWVSVIYADGMRRSYANSVKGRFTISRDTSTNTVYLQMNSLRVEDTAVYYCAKGKHAGTFDFWGQGTLVTVSS,1.49 / 0.45 / -0.44 / 0.55 / 1.02 / -0.05,0.50,0 of 18
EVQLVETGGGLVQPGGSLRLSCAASGNSLDEYGISWVRQAPGKGPEWVSVIYADGMRTAYTDDVKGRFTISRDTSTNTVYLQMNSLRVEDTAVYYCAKGLVAMTLVDWGQGTLVTVSS,nd / nd / nd / nd / nd / nd,nd,0 of 18
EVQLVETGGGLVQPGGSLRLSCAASGKDLLEYGISWVRQAPGKGPEWVSVIYADGIRVMYQNQVKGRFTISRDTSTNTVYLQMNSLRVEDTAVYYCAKGNVAGFFTFWGQGTLVTVSS,nd / nd / nd / nd / nd / nd,nd,0 of 18

Top 4 of the variants detected in all replicates, tightest first:

{"VH": "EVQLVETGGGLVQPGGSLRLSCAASGFGLMDYGISWVRQAPGKGPEWVSVIYADGMRRSYANSVKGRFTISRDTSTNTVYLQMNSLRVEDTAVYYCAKGKHAGTFDFWGQGTLVTVSS", "log10 Kd (nM) by replicate": "1.49 / 0.45 / -0.44 / 0.55 / 1.02 / -0.05", "mean log10 Kd (nM)": "0.50", "empty controls": "0 of 18"}
{"VH": "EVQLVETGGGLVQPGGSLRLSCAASGFDLEDYGISWVRQAPGKGPEWVSVIYADGKRTAYAQKFKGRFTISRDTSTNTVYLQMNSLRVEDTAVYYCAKGTIGGTFVDWGQGTLVTVSS", "log10 Kd (nM) by replicate": "0.48 / 0.92 / 0.57 / 0.20 / 0.59 / 0.66", "mean log10 Kd (nM)": "0.57", "empty controls": "0 of 18"}
{"VH": "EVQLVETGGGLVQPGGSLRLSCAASGFDIQDYGISWVRQAPGKGPEWVSVIYADGSRTAYVNSAKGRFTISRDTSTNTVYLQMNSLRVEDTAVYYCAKGLWGATLDVWGQGTLVTVSS", "log10 Kd (nM) by replicate": "1.02 / 0.91 / 0.77 / 0.27 / 0.34 / 1.03", "mean log10 Kd (nM)": "0.72", "empty controls": "0 of 18"}
{"VH": "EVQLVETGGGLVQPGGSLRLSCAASGFDLEKYGIHWVRQAPGKGPEWVSVIYADGIRKSYSDSVKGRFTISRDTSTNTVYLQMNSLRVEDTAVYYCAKGDLSGTFYVWGQGTLVTVSS", "log10 Kd (nM) by replicate": "1.28 / 1.11 / 1.25 / 1.47 / 1.39 / 1.08", "mean log10 Kd (nM)": "1.26", "empty controls": "1 of 18 (2.24)"}

The authors' rule: three or more of the six replicates give a measured affinity, fewer mean a poor binder. Three control strains display no target. For all heavy chain designs, 1% of the pairings with them gave a signal, with a median of 2.08 and one signal in twenty below 0.84, so weak values seen in few replicates may be background. For each scFv, signals with the empty controls are counted beside the result, with their mean in brackets. The range of this assay differs from that of the first round, and the authors advise against merging the two.

From the AlphaSeq antibody data of Li et al. 2023 (doi:10.1038/s41467-023-39022-2), copy in the FLAb collection.